Measured values as given in ChEMBL document CHEMBL5370639, “Structure-Based Lead Optimization of Enterovirus D68 2A Protease Inhibitors” (J Med Chem, 2023).

System: enterovirus D68
Conditions: time 2.0 hrs

CCC[C@H](NC(=O)[C@@H]1[C@H]2CCC[C@H]2CN1C(=O)[C@@H](NC(=O)[C@@H](NC(=O)c1cnccn1)C1CCCCC1)C(C)(C)C)C(=O)C(=O)NC1CC1
Kinact: 0.001 s⁻¹
